Results from ChEMBL document CHEMBL3588842, “Discovery of Selective Small-Molecule Inhibitors for the β-Catenin/T-Cell Factor Protein-Protein Interaction through the Optimization of the Acyl Hydrazone Moiety” (J Med Chem, 2015).

Chains of the proteins cited; added tags and fusions are not shown. Residues count along the entry.
UniProt P35222, whole entry: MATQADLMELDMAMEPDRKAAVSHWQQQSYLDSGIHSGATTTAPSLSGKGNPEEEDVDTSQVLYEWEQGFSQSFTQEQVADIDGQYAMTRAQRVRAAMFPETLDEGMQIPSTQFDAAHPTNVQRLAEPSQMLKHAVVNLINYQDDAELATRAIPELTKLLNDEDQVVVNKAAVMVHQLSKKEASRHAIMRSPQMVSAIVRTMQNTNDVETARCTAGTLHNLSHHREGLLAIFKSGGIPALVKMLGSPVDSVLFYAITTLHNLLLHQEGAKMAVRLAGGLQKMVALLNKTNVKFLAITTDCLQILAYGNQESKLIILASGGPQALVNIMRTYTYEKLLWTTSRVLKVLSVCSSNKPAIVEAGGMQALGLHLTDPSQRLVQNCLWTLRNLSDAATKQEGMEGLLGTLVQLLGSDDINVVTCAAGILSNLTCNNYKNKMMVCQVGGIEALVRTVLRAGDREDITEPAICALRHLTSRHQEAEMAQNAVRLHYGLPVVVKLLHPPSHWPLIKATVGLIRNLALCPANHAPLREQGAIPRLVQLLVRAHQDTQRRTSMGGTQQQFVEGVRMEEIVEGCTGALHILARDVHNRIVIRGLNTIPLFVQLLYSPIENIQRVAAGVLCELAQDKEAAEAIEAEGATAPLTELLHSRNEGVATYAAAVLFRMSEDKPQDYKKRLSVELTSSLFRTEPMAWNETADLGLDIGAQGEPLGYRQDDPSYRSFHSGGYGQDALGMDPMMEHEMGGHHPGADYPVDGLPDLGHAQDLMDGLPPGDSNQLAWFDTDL
UniProt P35222, 2-781 R469A limits assumed: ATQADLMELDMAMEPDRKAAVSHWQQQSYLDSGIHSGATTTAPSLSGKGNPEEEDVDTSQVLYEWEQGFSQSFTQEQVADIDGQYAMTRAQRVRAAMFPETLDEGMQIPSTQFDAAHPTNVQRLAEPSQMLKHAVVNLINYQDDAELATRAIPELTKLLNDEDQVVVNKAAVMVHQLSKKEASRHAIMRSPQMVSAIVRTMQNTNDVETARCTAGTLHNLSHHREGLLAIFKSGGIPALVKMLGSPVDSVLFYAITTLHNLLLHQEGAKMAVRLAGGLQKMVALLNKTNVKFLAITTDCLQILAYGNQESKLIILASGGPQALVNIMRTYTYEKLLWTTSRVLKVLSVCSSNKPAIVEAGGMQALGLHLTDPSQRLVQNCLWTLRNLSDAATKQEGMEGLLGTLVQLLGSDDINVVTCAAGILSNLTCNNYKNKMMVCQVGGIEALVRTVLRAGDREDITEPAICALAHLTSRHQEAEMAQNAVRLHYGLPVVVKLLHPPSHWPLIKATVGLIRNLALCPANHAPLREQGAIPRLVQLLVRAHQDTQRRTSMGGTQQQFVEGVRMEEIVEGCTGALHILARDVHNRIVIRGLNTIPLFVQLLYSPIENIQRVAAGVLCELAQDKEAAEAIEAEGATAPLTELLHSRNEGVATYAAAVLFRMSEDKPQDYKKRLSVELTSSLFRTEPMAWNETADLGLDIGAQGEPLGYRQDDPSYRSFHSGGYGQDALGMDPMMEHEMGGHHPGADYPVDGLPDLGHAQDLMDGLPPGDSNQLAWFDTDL

How the values were obtained:
Catenin beta-1 [1] = target: T1, Catenin beta-1 (Homo sapiens, UniProt P35222); assay: Inhibition of human wild-type beta-catenin (residues 138-686)/C-terminally fluorescein labeled human wild-type Tcf4 (residues 7-51) interaction after […] by FP competitive inhibition assay
Catenin beta-1 [2] = target: T1, Catenin beta-1; assay: Inhibition of human wild-type beta-catenin (residues 138-686)/C-terminally fluorescein-labeled human E-cadherin (residues 819-873) interaction by FP competitive inhibition assay
Catenin beta-1 [3] = target: T1, Catenin beta-1; assay: Inhibition of human wild-type beta-catenin (residues 138-686)/C-terminally fluorescein-labeled human APC-R3 (residues 1477-1519) interaction by FP competitive inhibition assay
Catenin beta-1 [4] = target: Catenin beta-1 (Homo sapiens, UniProt P35222, R469A)

O=C(O)CCCn1c2ccccc2c2nc3nonc3nc21
IC50 (Catenin beta-1 [1]): 15 µM
IC50 (Catenin beta-1 [2]): 170 µM
IC50 (Catenin beta-1 [3]): 340 µM
Ki (Catenin beta-1 [4]): 59 µM
